From patent US5889029A, “Use of cotinine in treating psychiatric disorders” (priority 1997, dated 1999)
pKi: −log10 of the molar value.

Chains of the proteins cited; added tags and fusions are not shown.
UniProt P33533, whole entry: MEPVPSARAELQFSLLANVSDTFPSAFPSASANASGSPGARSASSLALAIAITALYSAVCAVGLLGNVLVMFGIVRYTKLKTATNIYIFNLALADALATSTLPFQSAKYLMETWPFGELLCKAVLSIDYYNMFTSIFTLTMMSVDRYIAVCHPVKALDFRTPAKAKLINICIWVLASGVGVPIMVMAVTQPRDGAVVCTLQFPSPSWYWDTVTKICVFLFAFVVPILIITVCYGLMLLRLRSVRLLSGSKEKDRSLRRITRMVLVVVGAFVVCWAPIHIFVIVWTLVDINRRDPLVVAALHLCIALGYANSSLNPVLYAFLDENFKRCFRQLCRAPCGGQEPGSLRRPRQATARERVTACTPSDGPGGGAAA

Molecular target: T1, Opiate (Delta) (Rattus norvegicus, UniProt P33533)
T1 construct: Rat forebrain membranes; from tissue; host or cells: rat forebrain membranes
Assay: Opiate (Delta) Binding Assay
Conditions: reference compounds; Rat forebrain membranes; [3H]DPDPE

Enkephaline [DPDPE, Enkephaline [2-D penicillamine, 5-D penicillamine]]
pKi: 8.80
